Here are results for 1 molecule from ChEMBL document CHEMBL2203161 (Bioorg Med Chem, 2012).

SMILES strings stand for the structures.

For the assay, the target named is T1, Probable linoleate 9S-lipoxygenase 5 (Solanum tuberosum, UniProt Q43191).
T1 sequence (Q43191 whole entry): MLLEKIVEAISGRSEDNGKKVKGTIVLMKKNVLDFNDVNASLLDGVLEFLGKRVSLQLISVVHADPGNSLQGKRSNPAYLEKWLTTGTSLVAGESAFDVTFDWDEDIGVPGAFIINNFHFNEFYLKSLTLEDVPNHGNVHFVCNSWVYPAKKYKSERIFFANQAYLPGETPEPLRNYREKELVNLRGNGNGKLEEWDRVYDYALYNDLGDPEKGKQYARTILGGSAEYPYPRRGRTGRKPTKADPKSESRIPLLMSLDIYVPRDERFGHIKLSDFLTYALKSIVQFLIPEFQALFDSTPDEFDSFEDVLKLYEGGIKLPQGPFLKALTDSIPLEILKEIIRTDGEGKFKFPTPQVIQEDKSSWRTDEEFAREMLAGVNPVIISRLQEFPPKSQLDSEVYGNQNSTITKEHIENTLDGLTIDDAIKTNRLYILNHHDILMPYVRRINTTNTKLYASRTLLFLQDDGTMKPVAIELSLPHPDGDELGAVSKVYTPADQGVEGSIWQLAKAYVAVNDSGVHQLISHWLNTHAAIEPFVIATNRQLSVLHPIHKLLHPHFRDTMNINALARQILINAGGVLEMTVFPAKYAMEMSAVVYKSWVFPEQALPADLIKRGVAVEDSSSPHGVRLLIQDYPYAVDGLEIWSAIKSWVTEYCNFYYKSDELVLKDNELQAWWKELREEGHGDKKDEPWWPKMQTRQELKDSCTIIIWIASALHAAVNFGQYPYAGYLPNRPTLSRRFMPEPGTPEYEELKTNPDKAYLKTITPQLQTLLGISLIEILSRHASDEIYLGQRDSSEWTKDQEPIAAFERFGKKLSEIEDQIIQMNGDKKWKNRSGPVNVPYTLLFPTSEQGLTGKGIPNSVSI
In words: Inhibition of potato 5-lipoxygenase assessed as residual activity preincubated for 10 mins measured by real-time spectrophotometric analysis. In short, it runs like this:
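Single-concentration screen against soybean LOX-1 and potato 5-LOX. Enzyme preincubated 10 min with 50 µM compound. Formation of conjugated diene 13-HPOD from linoleic acid followed spectrophotometrically in real time. Residual activity given as percent of blank without inhibitor. Average of three independent experiments with standard deviations.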

As to `CCCCCCCCCCCCCCCc1cccc(O)c1C(=O)O` [ANACARDIC ACID], the IC50 (commonly the concentration needed to halve the response being measured) was 43 µM.
